Data on 22 compounds can be found in PubChem BioAssay (Tox21).

Protein sequences, listed by entry. Tags and fused reporters are not part of them.
UniProt P28223, whole entry: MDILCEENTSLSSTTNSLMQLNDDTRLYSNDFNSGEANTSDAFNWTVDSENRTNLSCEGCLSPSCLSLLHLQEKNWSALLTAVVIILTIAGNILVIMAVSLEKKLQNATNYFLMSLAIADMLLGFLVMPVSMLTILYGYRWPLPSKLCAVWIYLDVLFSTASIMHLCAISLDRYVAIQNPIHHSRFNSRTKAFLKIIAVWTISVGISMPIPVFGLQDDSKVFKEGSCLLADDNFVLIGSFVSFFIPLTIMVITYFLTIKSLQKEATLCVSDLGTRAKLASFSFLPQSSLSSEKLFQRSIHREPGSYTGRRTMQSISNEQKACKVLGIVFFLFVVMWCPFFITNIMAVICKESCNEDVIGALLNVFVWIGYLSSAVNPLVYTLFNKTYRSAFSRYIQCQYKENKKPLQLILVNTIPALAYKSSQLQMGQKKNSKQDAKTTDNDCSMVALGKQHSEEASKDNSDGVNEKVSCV

This is a selection; strong and weak results do not stand in their true shares. Inconclusive results are not listed. Calls of active or inactive are those of the source. The call rests on the fitted dose curve.
On the % scale 0 is the no-effect control and ±100 the full control effect; potency means the concentration at half of the fitted maximal effect.

This assay addresses 5-hydroxytryptamine receptor 2A (Homo sapiens) (UniProt P28223). Kind of assay: 5-hydroxytryptamine receptor 2A (HTR2A) small molecule antagonists, cell-based qHTS assay (AID 1963586). Further: nearly all actives have a fitted effect of over 45% in size. The note with it: HTR2A-CHO cells, DOI-induced calcium flux, fluorescence; series mostly up to 61.5 µM; activity, negative = inhibition: at the top concentration. An excerpt: National Center for Advancing Translational Sciences [NCATS]
Division of Preclinical Innovation [DPI]
U.S. Environmental Protection Agency [EPA]
National Institutes of Environmental Health Sciences [NIEHS]
National Toxicology Program [NTP]
U.S. Food and Drug Administration [FDA]
The HTR2A receptor is a subtype of the 5-HT2 receptor that belongs to the serotonin receptor family and is a G protein-coupled receptor (GPCR). The HTR2A-CHO cell line stably expressing human 5-hydroxytryptamine receptor 2A (HTR2A) can be used for screening antagonists of interactions between 5-HT2 and its ligands. The HTR2A-CHO calcium flux assay is a homogeneous fluorescence-based assay for detecting the intracellular calcium level using FDSS kinetic plate reader system.
Tox21 Assay Protocol Summary:
HTR2A-CHO cells were dispensed at 2000 cells/3uL/well in 1536-well black-clear bottom plates using a Multidrop Dispenser. After the assay plates were incubated at a 37 C/5% CO2 incubator for 18 h, 3 uL of Dye Loading Buffer was transferred to the assay plate by a Flying Reagent Dispenser. The assay plates were incubated at 37 C for 1h. For antagonist mode, 23 nL of compounds dissolved in DMSO, positive controls or DMSO only was transferred to the assay plate by a pin tool. After 5 min incubation at room temperature, 1.5 uL of 4-Iodo-2,5-dimethoxy-alpha-methylbenzeneethanamine hydrochloride (DOI) at 4nM was added to each well. The fluorescence intensity in the plates was measured using FDSS 7000EX kinetic plate reader for 3 min at 1 sec intervals.
For `CP(=O)(O)OCCC[Si](O)(O)O`, the “activity, negative = inhibition” value was inactive: 2.47%. `O=[N+]([O-])[O-].[NH4+]`: the Potency entry is “inactive”. Take `Cc1ccc([N+](=O)[O-])cc1[N+](=O)[O-]`: the “activity, negative = inhibition” value was inactive: -9.95%. The same measure, in the same setting: for `N#CBr` the value was inactive: 30.2%; for `CC(C)OP(C)(=O)OC(C)C`, inactive: -14.1%. The same measure, in the same setting: to `CCN(CC)CCCl` belongs inactive: -4.58%; to `CC(C)N(CCO)C(C)C`, inactive: -11.4%. As for `Cc1cccc([N+](=O)[O-])c1[N+](=O)[O-]`, the Potency was active: 11.2 µM. For the compound `O=[N+]([O-])OCC(CO[N+](=O)[O-])(CO[N+](=O)[O-])CO[N+](=O)[O-]`, the “activity, negative = inhibition” value is inactive: 3.46%. For the compound `Cc1ccc([N+](=O)[O-])c([N+](=O)[O-])c1`, the Potency result was “inactive”. As to `O=[N+]([O-])c1cccc([N+](=O)[O-])c1`, the “activity, negative = inhibition” value was inactive: 12.2%. With `OCCSCCO`, the Potency result is “inactive”. On the same count and under the same terms, for `COP(C)(=O)OC` the value was “inactive”.

Take `CN(C)CCCl`: the “activity, negative = inhibition” value was inactive: 3.76%. On the same count and under the same terms, to `Nc1cc([N+](=O)[O-])cc([N+](=O)[O-])c1O` belongs inactive: -2.36%. With `[NH4+].[O-][Cl+3]([O-])([O-])[O-]`, the Potency entry is “inactive”. For the compound `CCOP(=O)(CC)OCC`, the “activity, negative = inhibition” value is inactive: 19.9%. Consider `Cc1c([N+](=O)[O-])cccc1[N+](=O)[O-]`, for which the Potency result is “inactive”. In the case of `COc1ccc([N+](=O)[O-])cc1[N+](=O)[O-]`, the “activity, negative = inhibition” value is inactive: -1.33%. Same read-out and setting: to `N=C(N)N[N+](=O)[O-]` belongs inactive: -2.9%.

Take `C/C1=C2N=C(/C=C3N=C(/C(C)=C4\[N-][C@@](C)([C@@H]5N=C1[C@](C)(CCC(=O)NC[C@@H](C)OP(=O)([O-])O[C@H]1[C@@H](O)[C@@H](n6cnc7cc(C)c(C)cc76)O[C@@H]1CO)[C@H]5CC(N)=O)[C@@](C)(CC(N)=O)[C@@H]4CCC(N)=O)[C@@](C)(CC(N)=O)[C@@H]\3CCC(N)=O)C(C)(C)[C@@H]/2CCC(N)=O.[C-]#N.[Co+3]`: the “activity, negative = inhibition” value was inactive: 4.43% [at 28.5 µM].

For `CCOP(=O)(CC)Oc1ccc([N+](=O)[O-])cc1` (configuration not stated), the “activity, negative = inhibition” value is inactive: -8% [at 28.5 µM].
